Read-outs that look alike come from different tables or passages of the source.
Columns and labels:
[1] = Concentration of pregnenolone sulfate in standard external solution (HPLC-UV/Vis); type: physicochemical; settings: standard external solution pH 7.4, room temperature, 10-60 min
Method: For the electrophysiological studies, pregnenolone sulfate was prepared at nominal concentrations up to 300 μM in standard external solution. […] In order to determine the maximum stable concentration of pregnenolone sulfate in the external solution, aliquots of pregnenolone sulfate in dimethyl sulfoxide (DMSO) were diluted in external solution to final concentrations of 50, 200, 300, and 500 μM in duplicate, sonicated in a sonication bath (Thermo Fisher Scientific, Waltham, Mass., USA) for 1 min, and left at room temperature (25° C.) for 10, 30, or 60 min. […] Given the simple nature of the samples, HPLC-UV/Vis was used to determine the pregnenolone sulfate concentrations by adapting the method of Sanchez-Guijo et al. (see Sanchez-Guijo A, Oji V, Hartmann M F, Traupe H, Wudy S A “Simultaneous quantification of cholesterol sulfate, androgen sulfates, and progestagen sulfates in human serum by LC-MS/MS.” J Lipid Res. 2015; 56: 1843-1851), which is herein incorporated by reference in its entirety. […] The total flow rate was 1 mL min^−1 with a gradient as follows: 0 min, 80% A/20% B; 20 min, 30% A/70% B; 23 min, 1% A/99% B; 25 min, 1% A/99% B; 28 min, 80% A/20% B. An equilibration time of 10 min was used after each injection, and the absorbance at 215 nm (A215) was used for quantification based on the peak height. […]

Amino acid sequences for entries named in this document (tags omitted). Residues count along the entry.
UniProt J9SQF3, 1-1709 isoform J9SQF3-12: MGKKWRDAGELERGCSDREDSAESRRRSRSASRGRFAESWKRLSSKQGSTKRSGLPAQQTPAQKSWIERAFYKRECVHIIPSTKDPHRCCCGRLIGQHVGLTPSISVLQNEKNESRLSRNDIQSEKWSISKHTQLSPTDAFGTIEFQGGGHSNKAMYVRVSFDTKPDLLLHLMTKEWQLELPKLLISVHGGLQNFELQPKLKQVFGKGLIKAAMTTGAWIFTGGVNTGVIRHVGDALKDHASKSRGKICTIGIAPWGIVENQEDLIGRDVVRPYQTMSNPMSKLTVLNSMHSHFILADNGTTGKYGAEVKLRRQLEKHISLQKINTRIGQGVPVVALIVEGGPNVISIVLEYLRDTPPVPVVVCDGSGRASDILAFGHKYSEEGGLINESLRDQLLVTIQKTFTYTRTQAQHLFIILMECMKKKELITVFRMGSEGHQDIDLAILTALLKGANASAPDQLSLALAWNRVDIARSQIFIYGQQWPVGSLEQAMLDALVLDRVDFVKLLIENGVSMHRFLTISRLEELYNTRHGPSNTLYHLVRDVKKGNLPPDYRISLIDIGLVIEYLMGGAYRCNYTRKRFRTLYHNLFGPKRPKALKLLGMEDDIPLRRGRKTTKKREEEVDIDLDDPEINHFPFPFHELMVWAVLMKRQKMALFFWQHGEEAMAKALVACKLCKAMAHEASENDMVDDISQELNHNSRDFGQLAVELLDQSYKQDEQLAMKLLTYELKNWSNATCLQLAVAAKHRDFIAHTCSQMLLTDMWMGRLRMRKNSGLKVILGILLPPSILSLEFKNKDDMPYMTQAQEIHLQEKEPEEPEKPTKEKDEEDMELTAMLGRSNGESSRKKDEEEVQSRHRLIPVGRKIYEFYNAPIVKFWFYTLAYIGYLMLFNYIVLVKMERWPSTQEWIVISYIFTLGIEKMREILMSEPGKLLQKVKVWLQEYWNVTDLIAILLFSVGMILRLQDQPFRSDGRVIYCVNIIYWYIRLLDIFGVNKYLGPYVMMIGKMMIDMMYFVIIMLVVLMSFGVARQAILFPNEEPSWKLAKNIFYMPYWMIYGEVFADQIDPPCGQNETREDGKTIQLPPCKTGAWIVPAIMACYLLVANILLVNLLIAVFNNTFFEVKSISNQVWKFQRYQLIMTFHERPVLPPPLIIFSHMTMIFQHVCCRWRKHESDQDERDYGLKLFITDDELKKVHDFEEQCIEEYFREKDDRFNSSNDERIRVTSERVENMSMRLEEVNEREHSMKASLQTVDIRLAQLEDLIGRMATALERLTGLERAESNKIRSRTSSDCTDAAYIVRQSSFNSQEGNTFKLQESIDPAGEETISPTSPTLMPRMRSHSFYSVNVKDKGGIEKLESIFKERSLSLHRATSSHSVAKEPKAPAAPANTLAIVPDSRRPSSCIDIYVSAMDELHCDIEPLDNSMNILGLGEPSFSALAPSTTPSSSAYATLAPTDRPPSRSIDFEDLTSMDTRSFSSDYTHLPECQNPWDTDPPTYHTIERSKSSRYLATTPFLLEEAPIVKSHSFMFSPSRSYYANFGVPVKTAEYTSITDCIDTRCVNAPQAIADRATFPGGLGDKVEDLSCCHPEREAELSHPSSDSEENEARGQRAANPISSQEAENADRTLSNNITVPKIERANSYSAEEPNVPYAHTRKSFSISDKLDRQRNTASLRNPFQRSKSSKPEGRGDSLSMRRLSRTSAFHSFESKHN

TRPM3α2 channels = TRPM3α2 channels (Mus musculus, UniProt J9SQF3); settings: read-out: half-maximal effect, cited from earlier work

For Pregnenolone sulfate, the “solubility limit / true concentration at nominal 300 μM in standard external solution” value [1] is given as 232 ± 9 µM, the “solubility limit / true concentration at nominal 300 μM in standard external solution” value ([1]; listed as Pregnenolone sulfate) is given as 230 µM and the EC50 (TRPM3α2 channels; +80 mV) is given as 12 µM. The EC50 (TRPM3α2 channels; −80 mV) was 23 µM.

Reference: patent US20210299144A1, “USE OF PR[…] TO REDUCE CYST FORMATION IN KIDNEY” (priority 2019, published 2021)
